Source: patent US8946247B2, “Quinazoline carboxamide azetidines” (Merck Patent GmbH, priority 2010, dated 2015)

Chains of the proteins cited; added tags and fusions are not shown. Residues count along the entry.
UniProt P23443, 1-421 T412E limits assumed: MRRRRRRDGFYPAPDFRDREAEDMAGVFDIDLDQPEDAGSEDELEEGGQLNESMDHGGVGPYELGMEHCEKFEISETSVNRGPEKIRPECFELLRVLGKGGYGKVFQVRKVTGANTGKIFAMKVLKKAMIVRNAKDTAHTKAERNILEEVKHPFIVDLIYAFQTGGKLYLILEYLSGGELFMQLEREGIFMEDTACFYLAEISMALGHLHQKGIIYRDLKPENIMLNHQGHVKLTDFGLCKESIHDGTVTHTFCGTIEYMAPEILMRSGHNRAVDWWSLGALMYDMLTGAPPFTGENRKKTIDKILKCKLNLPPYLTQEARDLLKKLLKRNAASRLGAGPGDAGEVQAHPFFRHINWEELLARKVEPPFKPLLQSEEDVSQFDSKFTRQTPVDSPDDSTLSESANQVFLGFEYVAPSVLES
UniProt Q96GD4, whole entry: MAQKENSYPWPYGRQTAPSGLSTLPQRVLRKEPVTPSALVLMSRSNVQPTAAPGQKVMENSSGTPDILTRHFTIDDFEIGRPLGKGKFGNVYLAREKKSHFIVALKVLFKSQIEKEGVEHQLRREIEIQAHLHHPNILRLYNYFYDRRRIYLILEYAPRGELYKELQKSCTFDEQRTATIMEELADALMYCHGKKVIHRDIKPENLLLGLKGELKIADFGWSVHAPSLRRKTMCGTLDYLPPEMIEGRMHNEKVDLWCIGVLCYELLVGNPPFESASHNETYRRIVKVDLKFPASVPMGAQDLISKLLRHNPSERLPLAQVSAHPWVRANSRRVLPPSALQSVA
UniProt Q9NQS7, 803-918 partner limits assumed: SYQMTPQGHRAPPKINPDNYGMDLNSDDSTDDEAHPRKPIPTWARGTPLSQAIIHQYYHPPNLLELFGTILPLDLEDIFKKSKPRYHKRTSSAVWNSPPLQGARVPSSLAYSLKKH

Tests used:
P70S6K (T412E mutant) = P70S6K (T412E mutant) (Homo sapiens, UniProt P23443, T412E); experiment: p70S6K Enzyme Assay; conditions: read-out: IC50 p70S6K; 24 μM ATP, 90 min at 25° C., Caliper mobility shift
Experimental: p70S6K inhibitor compounds were diluted and plated in 96 well plates. A reaction mixture including the following components were then added to the compound plate to initiate the enzyme reaction; P70S6K (3 nM, T412E mutant, Millipore) was mixed with 24 μM ATP in an assay buffer containing 100 mM Hepes (pH 7.5), 5 mM MgCl2, 1 mM DTT, 0.015% Brij and 1 μM of the substrate peptide FITC-AHA-AKRRRLSSLRA-OH (derived from the S6 ribosomal protein sequence, FITC=fluorescein isothiocyanate, AHA=6-aminohexanoic acid). The reaction was incubated for 90 min at 25° C., before the addition of 10 mM EDTA to stop the reaction. The proportion of substrate and product (phosphorylated) peptide was analysed on a Caliper Life Sciences Lab Chip 3000, using a pressure of −1.4 psi, and upstream and downstream voltages of −3000 and −700 respectively. Product peaks were resolved before substrate peaks on the resulting chromatograms.
To assess the inhibitory potential of the compounds, IC50-values were determined, as shown in Chemical Synthesis section above.

Aurora B = Aurora B (Homo sapiens, UniProt Q96GD4); experiment: Aurora B Kinase Assay; conditions: read-out: Aurora B IC50; GST-Aurora B (1-344), 10 uM ATP, 90 min at 25 C
Experimental: To measure inhibitor activity of Aurora B inhibitors in the Caliper Life Sciences LC3000, a TTP Mosquito liquid handling instrument was used to place 0.25 ul of the appropriate concentration of inhibitor in 100% DMSO (for a dose response curve calculation) into each well of a 384-well plate. To this reaction components was added to a final volume of 25 ul: • 0.1 ng/ul GST-Aurora B (1-344 amino acids), (Carna Biosciences 05-102. N-terminal GST fusion with His tagged INCEP, accession number Q96GD4). • 10 uM ATP (Fluka, 02055) • 1 mM DTT (Sigma, D0632) • 1 mM MgCl2 (Sigma, M1028) • 1 uM substrate peptide (sequence FITC-LRRASLG-(CONH2), synthesized by Tufts Peptide Synthesis service. • 100 mM HEPES pH 7.5 (Calbiochem, 391338) • 0.015% Brij-35 (Sigma, B4184)
The reaction was incubated for 90 min at 25 C, and then stopped by the addition of 70 ul of Stop buffer (100 mM HEPES pH 7.5, 0.015% Brij-35, 10 mM EDTA (Sigma, E7889)).
The plate was read on a Caliper LC 3000 in an Off-Chip mobility shift assay format, using the following parameters for a 12-sipper chip: screening pressure −1.8 psi, upstream voltage −2700, downstream voltage −1000. […] The percent conversion was plotted against concentration of inhibitor to produce a sigmoidal dose response curve, from which an IC50 was calculated using XLFit for Microsoft Excel.

`NC(=O)c1cccc2c(N[C@H](CN3CCC3)c3ccc(NC(=O)c4ccccc4)cc3)ncnc12` showed an IC50 (P70S6K (T412E mutant)) of 0.44 µM and an IC50 (Aurora B) greater than 0.01 µM.
